The text below walks through data of PubChem BioAssay AID1768 (National Center for Advancing Translational Sciences (NCATS), 2009).

Amino acid sequences for entries named in this document (tags omitted).
UniProt O00255, whole entry, looked up: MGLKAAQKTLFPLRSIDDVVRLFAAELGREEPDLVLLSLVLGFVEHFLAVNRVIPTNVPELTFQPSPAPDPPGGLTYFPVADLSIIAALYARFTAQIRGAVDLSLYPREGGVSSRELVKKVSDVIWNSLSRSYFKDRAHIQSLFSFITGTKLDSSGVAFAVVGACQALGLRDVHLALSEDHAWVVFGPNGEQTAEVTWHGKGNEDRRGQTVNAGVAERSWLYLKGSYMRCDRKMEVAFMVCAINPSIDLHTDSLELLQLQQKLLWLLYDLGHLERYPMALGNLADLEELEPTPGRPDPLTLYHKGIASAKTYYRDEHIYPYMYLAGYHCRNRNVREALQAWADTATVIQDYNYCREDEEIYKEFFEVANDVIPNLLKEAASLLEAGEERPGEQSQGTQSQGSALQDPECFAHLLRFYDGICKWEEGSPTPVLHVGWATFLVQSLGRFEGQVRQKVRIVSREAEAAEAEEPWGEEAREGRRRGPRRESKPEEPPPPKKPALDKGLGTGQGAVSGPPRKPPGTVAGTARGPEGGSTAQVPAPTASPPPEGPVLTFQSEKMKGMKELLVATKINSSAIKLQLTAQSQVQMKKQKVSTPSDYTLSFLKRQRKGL

Values joined by “and” are separate entries in the source; they are usually repeats but may differ in a detail not shown here. Equal values may be shown once. The entries are a selection whose mix differs from that of the whole data set. Inconclusive results are not listed. Active and inactive are the calls of the source. The call rests on the fitted dose curve; in most records, active means well fitted inhibition curve with a large enough effect in the polarisation, with a control signal flat (not every such curve was filed as active); inconclusive means small, poorly fitted or top-dose-only effect, or effect the other way, or a change in a side signal; inactive means no such curve, though single readings can be large or run the other way; the % refers to the polarisation.

The target of this experiment is Menin (Homo sapiens) (UniProt O00255). The experiment can be described thus: qHTS Assay for Inhibitors Targeting the Menin-MLL Interaction in MLL Related Leukemias: Competition With Texas Red Labeled MLL-derived Mutant Peptide. Further: % of control where 0% means no effect. Particulars: fluorescence polarization. In general terms: In qHTS, concentration-response curves come from the screen itself.
[1] abbreviates: at 61.6 µM (top of the series) unless noted.

As to `O=[N+]([O-])c1ncn(CCn2ncnc2[N+](=O)[O-])n1`, under setting [1], the FP activity change, negative = inhibition was inactive: -2.16%. Take `O=C(O)CNc1ccc([As](=O)(O)O)cc1`: the FP activity change, negative = inhibition under setting [1] was inactive: -8.22%. Regarding `O=C(Nc1cc([As](=O)(O)O)ccc1O)c1ccccc1`, the FP activity change, negative = inhibition under setting [1] was inactive: 14.5%. Still for that read-out and setting: then `CCN(/C(=N/P(=O)(N1CCOCC1)N1CCOCC1)N1CCOCC1)c1ccc(OC)cc1`, with inactive: -15.3%; and `CN(C)C(=O)OCCc1n(C)cc[n+]1C`, with inactive: -3.52%. Still for that read-out and setting: the same measure for `CC(C)=N/N=C(\N)N[N+](=O)[O-]`: inactive: 19.9%. Turning to `CC(=O)C1=CCCC2CCC1N2` (stereo not given), the FP activity change, negative = inhibition under setting [1] was inactive: 2.77%.

Regarding `COc1ccc(C2=NCC(CBr)S2)cc1` (stereo not given), the FP activity change, negative = inhibition under setting [1] was inactive: -12.1%. For `CC(=O)N1C2C3N(C(C)=O)C1C1N(C(C)=O)C(C(N1C(C)=O)N3C(C)=O)N2C(C)=O`, the FP activity change, negative = inhibition under setting [1] is inactive: 16.6%. As for `O=[N+]([O-])c1cccc2n[nH]nc12`, under setting [1], the FP activity change, negative = inhibition was inactive: 1.76%.

Consider `CCc1nc2c(n1)c1c(non1O)c1c2no[n+]1[O-]`, for which the FP activity change, negative = inhibition under setting [1] is inactive: -2.44%. As to `Cc1ccc(NP(=O)(Oc2ccccc2)Oc2ccccc2)nc1`, the FP activity change, negative = inhibition under setting [1] was inactive: -23.6%. On the same count and under the same terms, then `O=C(NC(Sc1ccncn1)C(Cl)(Cl)Cl)c1ccccc1` (stereo not given), with inactive: 0.497%. As for `Cc1c2non([O-])c-2c(C)[n+](=O)[n+]1[O-]`, the FP activity change, negative = inhibition under setting [1] was inactive: -9.56%. The same measure, in the same setting: then `Oc1ccccc1CNc1ccccn1`, with inactive: 2.67%; and `NC(=O)c1cc([N+](=O)[O-])cc([N+](=O)[O-])c1N`, with inactive: -2.84%. In the case of `Cc1ccc(N/C(=N/P(=O)(N2CCOCC2)N2CCOCC2)N2CCOCC2)cc1`, the FP activity change, negative = inhibition under setting [1] was inactive: 0.597%. Regarding `COc1ccccc1OP(=O)(Nc1ccc(C)cn1)Oc1ccccc1OC`, the FP activity change, negative = inhibition under setting [1] is inactive: -12%.

With `CN1CCCC(OC(=O)C(c2ccccc2)c2ccccc2)C1` (stereo not given), the FP activity change, negative = inhibition under setting [1] is inactive: 13.6%. For `Clc1ccc(Cl)c(NC2=NCC(CBr)S2)c1` (stereo not given), the FP activity change, negative = inhibition under setting [1] is inactive: 3.95%.

For the compound `CCN(N=Nc1nonc1N)c1nonc1N`, the FP activity change, negative = inhibition under setting [1] is inactive: 9.18%. As for `CC(=O)Nc1ccc([As](=O)(O)O)cc1`, the FP activity change, negative = inhibition under setting [1] is inactive: -7.25%. For `O=C(O)c1ccccc1[As](=O)(O)O`, the FP activity change, negative = inhibition under setting [1] was inactive: -7.29%. As to `CN(C(=O)Cc1ccc(Cl)c(Cl)c1)[C@H]1CCCC[C@@H]1N1CCCC1`, the FP activity change, negative = inhibition by setting is: (at 24.8 µM (top of the series)) inactive: -0.394% and inactive: -2.22% and inactive: -10.9%; (at 61.6 µM (top of the series)) inactive: -26.4% and inactive: -10% and inactive: -0.759%. On to `Cc1cc(SC(NC(=O)c2ccc(F)cc2)C(Cl)(Cl)Cl)ncn1` (stereo not given), for which the FP activity change, negative = inhibition under setting [1] is inactive: 10.4%. Turning to `CCOP(=O)(Nc1ccccc1)OCC`, the FP activity change, negative = inhibition under setting [1] is inactive: -6.28%. On the same count and under the same terms, then `CC(=O)NC(SC(=S)N(CC(C)C)CC(C)C)C(Cl)(Cl)Cl` (stereo not given), with inactive: -12.3%; and `COC(=O)c1cc2c(s1)N=C(c1ccccc1)N(C)P2(=O)N1CCOCC1` (stereo not given), with inactive: -20%; and `CCC(=O)N1C2C3N(C(=O)CC)C1C1N(C(=O)CC)C(C(N1C(=O)CC)N3C(=O)CC)N2C(=O)CC`, with inactive: 13.2%.

On to `O=C(OC1CN2CCC1CC2)c1ccccc1` (stereo not given), for which the FP activity change, negative = inhibition under setting [1] was inactive: -3.29% and inactive: -1.64%.

Turning to `CN(C(=O)Cc1ccc(Cl)c(Cl)c1)[C@@H]1CCCC[C@@H]1N1CCCC1`, the FP activity change, negative = inhibition under setting [1] is inactive: 7.16%. On to `O=C(NC1CCS(=O)(=O)C1)NP(=S)(Oc1ccccc1)Oc1ccccc1` (stereo not given), for which the FP activity change, negative = inhibition under setting [1] is inactive: 24.1%. Still for that read-out and setting: then `CCNC(=S)/N=C(\N)N[N+](=O)[O-]`, with inactive: -12.5%; and `CCOC(=O)NC(Sc1ccccc1)C(Cl)(Cl)Cl` (stereo not given), with inactive: -19.1%. For `c1ccc(-c2nn[nH]n2)c(-c2nn[nH]n2)c1`, under setting [1], the FP activity change, negative = inhibition was inactive: 30.3%.

Turning to `CC(=O)c1ccc(N2CC2c2ccncc2)cc1` (stereo not given), under setting [1], the FP activity change, negative = inhibition is inactive: 2.28%. As to `O=P1(Nc2nc3ccc(Cl)cc3s2)COc2ccccc2O1` (stereo not given), the FP activity change, negative = inhibition under setting [1] is inactive: 18.1%. Take `CC(C)(C)C(=O)NC(Sc1ccccc1)C(Cl)(Cl)Cl` (stereo not given): under setting [1], the FP activity change, negative = inhibition was inactive: -15.6%.

Regarding `O=P(Nc1nccs1)(c1ccccc1)c1ccccc1`, under setting [1], the FP activity change, negative = inhibition was inactive: -0.445%. Still for that read-out and setting: the same measure for `CC(C)C(=O)NC(Sc1ccccc1)C(Cl)(Cl)Cl` (stereo not given): inactive: -1.73%. Regarding `CCC(C)(OOC(C)(C)C)OOC(C)(C)C`, the FP activity change, negative = inhibition under setting [1] was inactive: 18.7%. Same read-out and setting: then `CC(=O)NC(SC(=S)N(C)C)C(Cl)(Cl)Cl` (stereo not given), with inactive: 31.3%. Still for that read-out and setting: the same measure for `C(Cc1nn[nH]n1)Cc1nn[nH]n1`: inactive: -3.56%; for `O=C(OC1CN2CCC1CC2)c1cccc(Cl)c1` (stereo not given): inactive: -22.8%.

`CN(C)C1(CNC(=O)c2ccc(Cl)c(S(N)(=O)=O)c2)CCCCC1`: the FP activity change, negative = inhibition under setting [1] is inactive: -14.8%.

In the case of `O=P(Nc1ccccn1)(c1ccc(Br)cc1)c1ccc(Br)cc1`, the FP activity change, negative = inhibition under setting [1] was inactive: -18.8%. On the same count and under the same terms, the same measure for `O=P1(Nc2ncccn2)COc2ccccc2OC1`: inactive: 9.58%.

For the compound `Cc1ccc(OCC(=O)OC2CN3CCC2CC3)cc1` (stereo not given), the FP activity change, negative = inhibition under setting [1] was inactive: -6.02%. Still for that read-out and setting: then `O=P1(Nc2ccc(Br)cn2)COc2ccccc2OC1`, with inactive: -13.7%; and `Cc1ccc(C(=O)OC2CN3CCC2CC3)cc1` (stereo not given), with inactive: 2.77%; and `Cc1nn(-c2ccccc2)c2c1P(=O)(N1CCOCC1)N(C)C(c1ccccc1)=N2` (stereo not given), with inactive: -20.3%. Consider `CN(C)C1(CNC(=O)c2ccc(S(C)(=O)=O)cc2)CCCCC1`, for which the FP activity change, negative = inhibition under setting [1] was inactive: 0.812%. In the case of `O=[As](O)(c1ccccc1Br)c1ccccc1Br`, the FP activity change, negative = inhibition under setting [1] was inactive: -0.815%. Take `CN(C(=O)Cc1ccc(Cl)c(Cl)c1)[C@@H]1CCCC[C@H]1N1CCCC1`: the FP activity change, negative = inhibition under setting [1] was inactive: 1.11% and inactive: -13.5%. Regarding `CC(C)/C=N\N=C(\N)N[N+](=O)[O-]`, the FP activity change, negative = inhibition under setting [1] is inactive: 0.313%. Same read-out and setting: the same measure for `CCOP(=O)(Nc1ccc(C)cn1)OCC`: inactive: 1.8%.

Take `CN(CCCl)Cc1cc(Cl)c(NC2=NCCN2)c(Cl)c1`: under setting [1], the FP activity change, negative = inhibition was inactive: -2.74%. `CCC1=CC2Cc3nc4ccc(Cl)cc4c(N)c3C(C1)C2` (stereo not given): the FP activity change, negative = inhibition under setting [1] was inactive: -1.05%. Turning to `O=P1(Nc2ccccn2)COc2ccccc2OC1`, the FP activity change, negative = inhibition under setting [1] was inactive: 12.7%. Consider `Clc1n[nH]nc1-c1nn[nH][15n]1`, for which the FP activity change, negative = inhibition under setting [1] was inactive: 7.88%. Regarding `CCCOP(=S)(Nc1nc(N)cc(=O)[nH]1)OCCC`, the FP activity change, negative = inhibition under setting [1] was inactive: 59.9%. Still for that read-out and setting: then `CCOP(=O)(Nc1cccc2ccccc12)OCC`, with inactive: 0.158%; and `COc1cc(C2NCCC3(OCCO3)C2(C)C)cc(OC)c1OC` (stereo not given), with inactive: -4.78%.

Regarding `COc1cc(C(=O)NCC2(N3CCOCC3)CCCCC2)cc(Cl)c1OC(C)C`, the FP activity change, negative = inhibition under setting [1] is inactive: -15.3%.
